From ChEMBL document CHEMBL5375987, “Structural Fusion of Natural and Synthetic Ligand Features Boosts RXR Agonist Potency” (J Med Chem, 2023)
Calls of active or inactive are those of the source. The calls are words filed in the database; no cut-off is given here.

The chains behind the UniProt entries cited, without tags or fusion partners. Where a name states a change or a piece, a line headed by the entry shows the natural chain unless it says otherwise.
UniProt P10276, whole entry: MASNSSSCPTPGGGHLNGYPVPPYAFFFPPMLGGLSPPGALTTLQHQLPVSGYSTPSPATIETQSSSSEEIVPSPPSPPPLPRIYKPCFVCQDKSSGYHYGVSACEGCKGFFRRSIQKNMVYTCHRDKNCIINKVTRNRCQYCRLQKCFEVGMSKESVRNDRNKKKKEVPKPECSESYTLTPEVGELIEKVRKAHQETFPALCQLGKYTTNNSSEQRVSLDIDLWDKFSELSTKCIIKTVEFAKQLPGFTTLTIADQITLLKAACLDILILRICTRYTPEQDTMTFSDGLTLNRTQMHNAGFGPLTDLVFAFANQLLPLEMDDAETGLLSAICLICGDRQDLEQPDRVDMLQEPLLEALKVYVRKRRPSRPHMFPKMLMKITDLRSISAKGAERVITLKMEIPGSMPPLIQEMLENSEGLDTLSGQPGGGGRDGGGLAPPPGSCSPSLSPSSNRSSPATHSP
UniProt Q92570: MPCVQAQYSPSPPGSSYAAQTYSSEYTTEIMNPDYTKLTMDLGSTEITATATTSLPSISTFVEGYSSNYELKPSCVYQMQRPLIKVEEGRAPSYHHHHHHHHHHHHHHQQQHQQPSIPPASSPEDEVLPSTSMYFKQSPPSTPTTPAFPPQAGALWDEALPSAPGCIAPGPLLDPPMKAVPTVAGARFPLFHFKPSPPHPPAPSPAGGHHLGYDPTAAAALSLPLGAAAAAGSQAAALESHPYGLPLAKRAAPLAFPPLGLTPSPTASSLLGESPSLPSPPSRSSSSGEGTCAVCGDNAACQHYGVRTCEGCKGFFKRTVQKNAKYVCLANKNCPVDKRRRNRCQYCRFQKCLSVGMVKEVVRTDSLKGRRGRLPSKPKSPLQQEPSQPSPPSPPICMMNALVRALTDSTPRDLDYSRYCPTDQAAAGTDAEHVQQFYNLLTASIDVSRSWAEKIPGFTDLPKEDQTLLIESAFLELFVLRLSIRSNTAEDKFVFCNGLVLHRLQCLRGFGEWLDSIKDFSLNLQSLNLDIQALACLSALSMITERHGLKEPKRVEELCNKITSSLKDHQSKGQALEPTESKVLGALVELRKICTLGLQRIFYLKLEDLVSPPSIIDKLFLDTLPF
UniProt P37231: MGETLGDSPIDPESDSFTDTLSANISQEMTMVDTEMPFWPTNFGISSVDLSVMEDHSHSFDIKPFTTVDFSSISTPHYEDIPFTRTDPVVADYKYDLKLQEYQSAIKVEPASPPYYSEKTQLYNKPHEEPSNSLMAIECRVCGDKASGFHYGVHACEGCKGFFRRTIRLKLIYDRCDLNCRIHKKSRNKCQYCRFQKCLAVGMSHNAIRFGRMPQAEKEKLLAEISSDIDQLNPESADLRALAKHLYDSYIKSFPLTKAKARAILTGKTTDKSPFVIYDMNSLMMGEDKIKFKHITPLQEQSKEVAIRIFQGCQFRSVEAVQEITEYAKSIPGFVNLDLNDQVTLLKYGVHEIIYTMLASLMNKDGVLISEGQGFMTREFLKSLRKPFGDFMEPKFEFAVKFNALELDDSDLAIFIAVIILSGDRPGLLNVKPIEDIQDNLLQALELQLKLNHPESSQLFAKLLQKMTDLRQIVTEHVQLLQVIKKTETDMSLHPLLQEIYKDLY
UniProt P22736, whole entry: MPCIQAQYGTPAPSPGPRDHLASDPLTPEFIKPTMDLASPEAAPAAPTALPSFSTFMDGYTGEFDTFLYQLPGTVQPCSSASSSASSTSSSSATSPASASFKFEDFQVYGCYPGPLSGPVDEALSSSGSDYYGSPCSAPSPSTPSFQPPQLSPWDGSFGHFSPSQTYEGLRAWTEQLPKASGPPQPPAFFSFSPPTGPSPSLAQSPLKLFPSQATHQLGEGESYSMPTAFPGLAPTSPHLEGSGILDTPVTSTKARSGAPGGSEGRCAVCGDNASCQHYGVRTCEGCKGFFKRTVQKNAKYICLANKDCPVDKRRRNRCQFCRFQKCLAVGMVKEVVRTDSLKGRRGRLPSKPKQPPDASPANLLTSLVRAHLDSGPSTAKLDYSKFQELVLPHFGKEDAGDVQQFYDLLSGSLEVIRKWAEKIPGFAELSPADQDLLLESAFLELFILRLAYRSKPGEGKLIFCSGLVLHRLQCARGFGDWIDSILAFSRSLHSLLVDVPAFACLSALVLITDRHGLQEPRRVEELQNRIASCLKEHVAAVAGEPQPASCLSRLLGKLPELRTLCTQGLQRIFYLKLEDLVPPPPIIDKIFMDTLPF

Legend:
[1] = target: T1, Hepatocyte nuclear factor 4-alpha (Homo sapiens) (UniProt P41235); assay: Agonist activity at NR2A1 (unknown origin) at 1 uM
T1 sequence (whole entry): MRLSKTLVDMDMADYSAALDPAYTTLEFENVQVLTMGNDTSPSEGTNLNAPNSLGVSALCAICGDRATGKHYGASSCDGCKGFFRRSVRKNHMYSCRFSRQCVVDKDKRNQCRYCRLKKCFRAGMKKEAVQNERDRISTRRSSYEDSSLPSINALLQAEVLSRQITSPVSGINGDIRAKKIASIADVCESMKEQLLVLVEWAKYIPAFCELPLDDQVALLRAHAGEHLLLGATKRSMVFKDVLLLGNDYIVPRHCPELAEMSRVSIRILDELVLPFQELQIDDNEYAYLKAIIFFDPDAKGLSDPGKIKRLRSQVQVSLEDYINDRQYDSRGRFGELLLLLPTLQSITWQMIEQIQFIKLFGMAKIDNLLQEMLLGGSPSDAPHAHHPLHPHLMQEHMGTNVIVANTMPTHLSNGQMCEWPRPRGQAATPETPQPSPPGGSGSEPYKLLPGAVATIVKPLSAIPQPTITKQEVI

[2] = target: T2, Vitamin D3 receptor (Homo sapiens) (UniProt P11473); assay: Inverse agonist activity at NR1I1 (unknown origin) at 1 uM
T2 sequence (whole entry): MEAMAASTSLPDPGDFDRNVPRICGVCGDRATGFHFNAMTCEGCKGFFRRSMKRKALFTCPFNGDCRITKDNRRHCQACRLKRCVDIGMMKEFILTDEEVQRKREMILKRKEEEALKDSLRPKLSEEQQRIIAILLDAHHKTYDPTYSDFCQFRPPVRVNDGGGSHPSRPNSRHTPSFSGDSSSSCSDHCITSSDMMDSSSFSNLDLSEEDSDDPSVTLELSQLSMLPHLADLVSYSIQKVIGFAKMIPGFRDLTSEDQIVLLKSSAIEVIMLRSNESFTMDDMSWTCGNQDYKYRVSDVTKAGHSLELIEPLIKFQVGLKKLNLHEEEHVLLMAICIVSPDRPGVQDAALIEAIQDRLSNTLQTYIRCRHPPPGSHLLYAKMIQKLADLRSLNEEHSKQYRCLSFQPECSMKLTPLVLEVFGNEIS

[3] = target: T3, Nuclear receptor ROR-beta (Homo sapiens) (UniProt Q92753); assay: Agonist activity at NR1F2 (unknown origin) at 1 uM
T3 sequence (whole entry): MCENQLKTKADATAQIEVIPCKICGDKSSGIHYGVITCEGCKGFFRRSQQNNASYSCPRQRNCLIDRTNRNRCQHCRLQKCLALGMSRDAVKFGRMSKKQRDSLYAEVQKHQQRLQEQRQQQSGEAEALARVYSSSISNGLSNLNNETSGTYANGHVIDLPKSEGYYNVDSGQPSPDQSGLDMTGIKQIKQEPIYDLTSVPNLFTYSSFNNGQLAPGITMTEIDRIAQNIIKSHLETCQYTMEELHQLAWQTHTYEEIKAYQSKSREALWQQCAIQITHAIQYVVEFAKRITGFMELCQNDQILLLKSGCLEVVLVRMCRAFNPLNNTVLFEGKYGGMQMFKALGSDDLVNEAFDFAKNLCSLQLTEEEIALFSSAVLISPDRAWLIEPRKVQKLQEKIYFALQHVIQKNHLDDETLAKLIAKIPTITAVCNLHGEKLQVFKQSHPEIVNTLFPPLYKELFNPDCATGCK

[4] = target: T4, Peroxisome proliferator-activated receptor delta (Homo sapiens) (UniProt Q03181); assay: Agonist activity at NR1C2 (unknown origin) at 1 uM
T4 sequence (whole entry): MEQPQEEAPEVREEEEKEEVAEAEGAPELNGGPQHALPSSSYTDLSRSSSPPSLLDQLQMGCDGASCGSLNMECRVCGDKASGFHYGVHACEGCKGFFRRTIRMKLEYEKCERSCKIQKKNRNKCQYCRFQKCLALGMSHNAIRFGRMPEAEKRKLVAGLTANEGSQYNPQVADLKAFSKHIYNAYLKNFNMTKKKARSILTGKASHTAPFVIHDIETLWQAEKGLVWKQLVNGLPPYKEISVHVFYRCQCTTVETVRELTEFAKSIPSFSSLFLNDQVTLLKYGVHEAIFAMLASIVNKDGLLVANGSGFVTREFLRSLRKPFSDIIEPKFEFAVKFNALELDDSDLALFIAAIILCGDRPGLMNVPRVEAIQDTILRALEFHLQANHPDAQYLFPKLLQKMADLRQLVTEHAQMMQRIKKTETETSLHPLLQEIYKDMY

[5] = target: T3, Nuclear receptor ROR-beta (Homo sapiens); assay: Inverse agonist activity at NR1F2 (unknown origin) at 1 uM
[6] = target: Retinoic acid receptor alpha (Homo sapiens) (UniProt P10276); assay: Antagonist activity at NR1B1 (unknown origin) at 1 uM
[7] = target: Nuclear receptor subfamily 4 group A member 3 (Homo sapiens) (UniProt Q92570); assay: Agonist activity at NR4A3 (unknown origin) at 1 uM
[8] = target: Peroxisome proliferator-activated receptor gamma (Homo sapiens) (UniProt P37231); assay: Inverse agonist activity at NR1C3 (unknown origin) at 1 uM
[9] = target: T5, Thyroid hormone receptor beta (Homo sapiens) (UniProt P10828); assay: Inverse agonist activity at NR1A2 (unknown origin) at 1 uM
T5 sequence (whole entry): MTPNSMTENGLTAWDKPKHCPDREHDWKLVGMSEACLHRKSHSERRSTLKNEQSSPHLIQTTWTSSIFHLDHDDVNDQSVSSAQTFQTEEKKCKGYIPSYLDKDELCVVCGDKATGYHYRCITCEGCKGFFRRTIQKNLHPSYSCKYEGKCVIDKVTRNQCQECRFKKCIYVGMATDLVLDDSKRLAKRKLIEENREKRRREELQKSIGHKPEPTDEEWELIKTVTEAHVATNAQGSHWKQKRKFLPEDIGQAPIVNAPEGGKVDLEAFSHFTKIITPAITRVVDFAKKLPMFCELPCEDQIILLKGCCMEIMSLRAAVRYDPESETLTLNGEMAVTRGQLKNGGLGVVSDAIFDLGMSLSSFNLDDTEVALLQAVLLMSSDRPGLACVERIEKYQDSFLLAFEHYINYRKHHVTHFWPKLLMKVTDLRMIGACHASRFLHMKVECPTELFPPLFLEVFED

[10] = target: Nuclear receptor subfamily 4immunitygroup A member 1 (Homo sapiens) (UniProt P22736); assay: Antagonist activity at NR4A1 (unknown origin) at 1 uM

- Activity [1]: inactive
- Activity [2]: inactive
- Activity [3]: inactive
- Activity [4]: inactive
- Activity [5]: inactive
- Activity [6]: inactive
- Activity [7]: inactive
- Activity [8]: inactive
- Activity [9]: inactive
- Activity [10]: inactive
Structure (SMILES): O=C(O)[C@@H]1C[C@H]1c1nc(-c2ccccc2)c(-c2cc(C(F)(F)F)cc(C(F)(F)F)c2)o1 (racemic)
